# Patent US20260034123A1 (Cedilla Therapeutics, Inc., priority 2022, published 2026)
# Assays:
# CDK2/Cyclin E1 [1] = target: T1, CDK2/Cyclin E1 (Homo sapiens, UniProt P24941); experiment: Caliper LabChip EZ Reader mobility shift assay; conditions: read-out: Caliper Assay (CDK2/CCNE1): IC50; 2.5 nM CDK2/Cyclin E1(14-475), 100 μM ATP, 30 min preincubation
# Experimental: Inhibition of CDK2/Cyclin E1 activity in the presence of compounds of the present disclosure was evaluated using a Caliper LabChip® EZ Reader mobility shift assay. In the assay, activated CDK2/Cyclin E1 catalyzes the phosphorylation of a fluorescently tagged peptide 5-FAM-QSPKKG-CONH2 (PerkinElmer, FL Peptide 18) which induces a difference in capillary electrophoresis mobility. The peptide substrate and product were measured, and the conversion ratio was used to determine the inhibition (as % activity and IC50 values) of CDK2/Cyclin E1. Reactions contained 50 mM HEPES pH 7.5, 10 mM MgCl2, 1 mM EDTA, 2 mM DTT, 0.01% Brij35, 0.5 mg/mL BSA, 0.1% DMSO, 2.5 nM CDK2/Cyclin E1(14-475), 100 μM ATP, and 1.5 μM fluorescent peptide substrate.
# Dose titrations of inhibitors in 100% DMSO were combined with 3.25 nM CDK2/Cyclin E1(14-475) and 130 μM of ATP in reaction buffer. The mixtures were incubated for 30 minutes before the addition of fluorescent peptide substrate to initiate the kinase reaction. The final conditions were 2.5 nM CDK2/Cyclin E1(14-475), 100 μM ATP, and 1.5 μM fluorescent peptide. The reactions were stopped after 100 minutes with the addition of EDTA (6 mM final EDTA concentration). The stopped reactions were analyzed on a Caliper LabChip® EZ Reader 11. […]
# Kuramochi cells RB-WT = experiment: IncuCyte Kuramochi cell proliferation assay, RB-WT; conditions: read-out: IncuCyte - Kuramochi RB-WT: IC50, 72 hours, cell count
# Experimental: (§1) IncuCyte® assay was used to measure the effect of disclosed compounds on cell proliferation. Fluorescent microscopy images of cells were taken immediately after compound treatment and 72 hours later. Image analysis software was used to obtain cell counts as a function of compound concentration. Kuramochi cells labeled with mApple-H2B were seeded on 384-well assay-ready plates. Plates were placed in an IncuCyte® (Sartorius) and scanned at 0 and 72 hours. IncuCyte® software was used to count the number of fluorescent nuclei in each well. The fold change in cell count from 0 to 72 hours in wells treated with increasing compounds concentrations (10 pts, 1/2 log dilution, 20 µM top concentration) was normalized to DMSO control wells. The normalized cell counts were fit with dose response curves and a GI50 was calculated.
# CDK2/Cyclin E1 [2] = target: T1, CDK2/Cyclin E1; experiment: ADP-Glo Luminescent Kinase Assay (CDK2/E1-37C); conditions: read-out: ADPGLO (CDK2/E1-37C): IC50; 0.18 nM CDK2/Cyclin E1, 100 μM ATP, Histone H1, 37° C.
# Experimental: Inhibition of CDK2/Cyclin E1 activity by the presence of small molecules was evaluated using ADP-Glo Luminescent Kinase Assay (Promega). Activated CDK2/Cyclin E1 was incubated with its substrate Histone H1 (SignalChem H10-54N) in the kinase reaction buffer (100 μM ATP, 50 mM HEPES pH 7.5, 10 mM MgCl2, 1 mM EDTA, 2 mM DTT, 0.01% Brij35, 0.5 mg/mL BSA). Luminescence was recorded with an Envision plate reader (PerkinElmer).
# Dose titrations of inhibitors in 100% DMSO were combined with 0.36 nM CDK2/Cyclin E1 in reaction buffer. The mixtures were incubated for 60 minutes at 37° C. before the addition of ATP and Histone H1 substrate to initiate the kinase reaction. The final conditions were 0.18 nM CDK2/Cyclin E1, 100 μM ATP, and […] Histone H1. The reactions were incubated at 37° C. for 90 minutes before being stopped with the addition of ADP-Glo reagent. This mixture was incubated at room temperature for 60 minutes before Kinase Detection Solution is added to generate luminescence. The stopped reactions were analyzed on an Envision plate reader. The conversion ratios were normalized to yield % activity, plotted against compound concentration, and fit to a four-parameter equation to determine the IC50 for each compound.
# Kuramochi cells RB-KO = experiment: IncuCyte Kuramochi cell proliferation assay, RB-KO; conditions: read-out: IncuCyte Kuramochi RB-KO: IC50 - Batch Mean, 72 hours, cell count
# Experimental: as §1
IC50 (CDK2/Cyclin E1 [1]) [µM],SMILES,IC50 (Kuramochi cells RB-WT) [µM],IC50 (CDK2/Cyclin E1 [2]) [µM],IC50 (Kuramochi cells RB-KO) [µM]
> 10,CC1(C)C[C@@H]1C(=O)N1CC2(CN(C(=O)c3cncs3)CC2CNCc2cccc(C3CCOCC3)n2)C1 (some centres unmarked),> 10,,
,"CC(C)(C(=O)N1CC2(CN(C(=O)c3cnn(Cc4ccc(F)cc4)c3)C[C@H]2COCc2cccc(C3CCC(F)(F)CC3)c2C(=O)O)C1)C(F)(F)F [Compound I-101, (S)-2-(4,4-difluorocyclohexyl)-6-(((6-(1-(4-fluorobenzyl)-1H-pyrazole-4-carbonyl)-2-(3,3,3-trifluoro-2,2-dimethylpropanoyl)-2,6-diazaspiro[3.4]octan-8-yl)methoxy)methyl)benzoic acid]",> 10,< 0.5,> 10
